Results on one compound are retold here after patent publication US20110160193A1, “New Benzothiazinone Derivatives and Their Use as Antibacterial Agents” (Leibniz Institute for Natural Product Research and …, priority 2006, published 2011).

Values after ≈ are worked out from the molar mass of the structure shown.

Assay in all cases: MIC by micro broth dilution method in Mueller-Hinton broth (NCCLS)
What all share (type): cell-based

The subject of assay [1] is M. vaccae IMET 1010670. The conditions noted are these: Mycolicibacterium vaccae, IMET1010670.
Assay [2] has as its system M. fortuitum B. To be noted: Mycolicibacterium fortuitum.
The subject of assay [3] is Mycobacterium smegmatis SG 987. To be noted: Mycolicibacterium smegmatis, SG987.

On to `CCOC1(OCC)CCN(c2nc(=O)c3cc([N+](=O)[O-])cc([N+](=O)[O-])c3s2)CC1` [Compound 6, 2-(4,4-diethoxypiperidin-1-yl)-6,8-dinitro-1,3-benzothiazin-4-one], for which the MIC (commonly the least concentration at which growth counts as inhibited) in assay [1] is 0.04 µg/mL (≈ 0.0942 µM); in assay [2] it was 0.08 µg/mL (≈ 0.188 µM); in assay [3], over 10 µg/mL.
